Assay results: patent publication US4238491A (priority 1977, dated 1980)
Read-outs that look alike come from different tables or passages of the source.

What was measured:
rats [1] = tested on: rats
rats [2] = details: rat, in vivo
rats [3] = tested on: rats; remark: listed apart in the source
Excerpt: Rats were sacrificed under anesthesia with ether. After observation of gross appearance of all the organs, extraction and weighing were made on spleen, lung, liver, adrenal, heart, thymus, kidney, testicles, hypophysis and thyroid. In addition to the above organs, femoral bone marrow, lymph node, stomach, intestine, pancreas, urinary bladder, prostate and central nervous system were removed and fixed in 10% formaline solution.

[4] = 20 mg/kg oral, MR = 1
rats [5] = type: in vivo, rat (SD (SPF)); details: oral sub-acute
Method: All the rats were observed daily and general symptoms noted. Weight was measured daily, average food-intake once every three days, and average water-intake once every two days.

blood pressure of SHR = assay: Antihypertensive effect by single administration, SHR, direct cannulation; type: in vivo, rat (spontaneously hypertensive rats; details: from DB20
Method: The effect was examined through both direct and modified tail-cuff methods using male SHRs aged 25 to 30 weeks and weighing about 300 g.
In the direct cannulation method, polyethylene cannules were inserted in femoral arteries of the conscious unanesthesized SHRs under back-fixation,and MR solution was administered in an amount of 0.1 mg/100 g of weight for venous injection, and 1 ml/100 g of weight for oral administration. Changes in the blood pressure over 6 hours were measured with a multi-purpose polygraph RM-85 made by NIHON KODEN Co., Ltd. MR was dissolved in 0.9% NaCl aqueous solution with 1 N-HCl, and the solution was neutralized for use.

| Compound | R.B.C. (rats [1]; 50.0 mg/kg, day 30) | W.B.C (rats [1]; 50.0 mg/kg, day 30) | R.B.C. (rats [1]; 100.0 mg/kg, day 30) | red cell count (rats [1]; 100 and 200 mg/kg groups) | white cell count (rats [1]; 100 and 200 mg/kg groups) | hematology (rats [1]; groups other than 100 and 200 mg/kg) | R.B.C. (rats [1]; rat, in vivo) | GPT (rats [2]) | Absolute weight Testis (rats [3]; 50.0 mg/kg) [g] | Absolute weight Heart (rats [3]; 100.0 mg/kg) [g] | Absolute weight Testis (rats [3]; 100.0 mg/kg) [g] | Absolute weight Adrenal (rats [3]; rat, in vivo) | Absolute weight Heart (rats [3]; rat, in vivo) | Absolute weight Testis (rats [3]; rat, in vivo) | Bioavailability Ratio (area under the curve) [4] | lethal dose (rats [5]) [mg/kg] | Rate of Effects (relative to MR) (blood pressure of SHR; I.V.) | Rate of Effects (relative to MR) (blood pressure of SHR; P.O.) |
| --- | --- | --- | --- | --- | --- | --- | --- | --- | --- | --- | --- | --- | --- | --- | --- | --- | --- | --- |
| COC(=O)[C@H]1[C@H]2C[C@@H]3c4[nH]c5cc(OC)ccc5c4CCN3C[C@H]2C[C@@H](O)[C@@H]1OC [MR, methylreserpate] | 901±15.1 x10^4 /mm^3 | 153±12.5 ×10^2 /mm^3 | 915±15.1 x10^4 /mm^3 | increase in red cell count | decrease in white cell count | no significant change | 770±15.1 x10^4 /mm^3 | 32.0±1.16 | 1.68 ± 0.03 | 1.16 ± 0.04 | 1.51 ± 0.09 | 24.95±1.42 | 1.15±0.04 | 1.63±0.05 |  |  |  |  |
| COC(=O)[C@H]1[C@H]2C[C@@H]3c4[nH]c5cc(OC)ccc5c4CCN3C[C@H]2C[C@@H](OC(=O)/C=C/c2cc(OC)c(OC)c(OC)c2)[C@@H]1OC [RCN, Rescinnamin] |  |  |  |  |  |  |  |  |  |  |  |  |  |  | 0.32 | 36 | 2.70 | 1.22 |
